The values that follow come from US8981149B2, “Compounds modulating the hedgehog protein signaling pathway, marked forms thereof, and applications” (Centre National De La Recherche Scientifique, priority 2011, dated 2015).

Protein sequences, listed by entry. Tags and fused reporters are not part of them. Residues count along the entry.
UniProt Q99835, 28-787 limits assumed: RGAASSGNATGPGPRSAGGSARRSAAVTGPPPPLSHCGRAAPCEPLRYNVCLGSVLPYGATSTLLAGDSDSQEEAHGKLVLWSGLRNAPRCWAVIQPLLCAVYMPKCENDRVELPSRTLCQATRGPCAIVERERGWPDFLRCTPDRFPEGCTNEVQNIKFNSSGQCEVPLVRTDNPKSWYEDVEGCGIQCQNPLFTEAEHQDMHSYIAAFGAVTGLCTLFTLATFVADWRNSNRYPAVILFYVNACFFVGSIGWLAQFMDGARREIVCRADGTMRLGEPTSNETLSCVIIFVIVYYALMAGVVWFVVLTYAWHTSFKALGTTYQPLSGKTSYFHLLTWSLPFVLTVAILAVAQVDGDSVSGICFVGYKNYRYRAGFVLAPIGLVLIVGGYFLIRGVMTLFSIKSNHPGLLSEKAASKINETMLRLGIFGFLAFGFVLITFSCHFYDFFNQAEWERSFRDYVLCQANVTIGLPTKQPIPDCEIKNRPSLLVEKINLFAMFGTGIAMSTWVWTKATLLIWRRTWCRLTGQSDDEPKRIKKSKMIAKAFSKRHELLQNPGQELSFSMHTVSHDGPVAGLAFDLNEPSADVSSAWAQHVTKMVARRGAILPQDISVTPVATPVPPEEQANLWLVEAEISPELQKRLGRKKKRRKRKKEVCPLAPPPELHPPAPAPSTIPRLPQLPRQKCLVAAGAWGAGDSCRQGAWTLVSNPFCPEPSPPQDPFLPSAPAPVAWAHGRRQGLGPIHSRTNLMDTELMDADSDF

Experiment [1] deals with T1, human Smoothened receptor (Homo sapiens, UniProt Q99835). Briefly: Saturation of binding of 3H-(7d) to membranes of HEK-hSmo cells. As to conditions: tested form: HCl.
Experiment [2] concerns the target T1, human Smoothened receptor. Briefly: Kinetics of association of 3H-(7d) with membranes of HEK-hSmo cells. As to conditions: tested form: HCl; for Half-association time: 0.35 nM radioligand.

The Kd is the free concentration of one partner at which half of the binding sites on the other are occupied at equilibrium, for simple one-to-one binding. For the compound `[3H]C(c1ccccc1)C([3H])c1ccc(C(=O)Nc2cc(NC(=N)NC(=O)c3cc(OC)c(OC)c(OC)c3)ccc2C)cc1` (stereo not shown), in experiment [1] (HEK-hSmo membranes (2 μg of proteins)), the “Bmax of specific binding” value was 1086±91 cpm. Moreover, the Kd in experiment [1] (read-out: Kd of specific binding, HEK-hSmo membranes, 3 hours at 37° C., nonspecific with 1 μM GDC-0449) worked out at 300 pM. The Half-association time in experiment [2] (25° C.) worked out at 71 min; in experiment [2] (37° C.) it was 33 min. Also, the “Time of incubation to reach equilibrium of specific binding” value in experiment [2] (25° C., not reached) is more than 5 h; in experiment [2] (37° C.) it was 3 h. For the same compound, the Nonspecific binding in experiment [2] (beyond 5 minutes of incubation, defined with 0.1 μM of GDC0449) is listed as 0.4 % of the total binding.
